Experimental data as given in article PMC7002685, “Inhibition of vascular calcification by inositol phosphates derivatized with ethylene glycol oligomers” (Nature Communications, 2020).

Columns and labels:
vascular calcification [1] = assay: Vitamin D3 (s.c.) + high-phosphate diet rat model of VC; format: in vivo; details: 30 mg/kg s.c. twice daily for 11 days
Experimental: Male Sprague-Dawley rats were housed two per cage with free access to water and standard chow and submitted to a 12-h light/dark cycle. Compounds were administered and doses calculated using the salt form. […] Sham groups were injected with 0.9% NaCl instead of vitamin D3. […] Blood samples of 500 µL were collected on day 8 by fine needle from the tail vein and at sacrifice on day 12. […] Serum creatinine, calcium, and phosphorus were measured using standard colorimetric biochemistry analysis (Cobas Mira). Calcium tissue content was measured from dried carotids, whole left kidneys, and abdominal aortas by ICP-MS analysis. […] Images of the rat aortic trees were acquired on a Canon 5D MARKIII (Canon, Tokio, Japan) equipped with a 50 mm lens.
Calcium tissues’ contents were measured at the Central Environmental Laboratory (EPFL, Lausanne, Switzerland). Dry tissues (90 °C, overnight) were weighed and digested by aqua regia overnight at RT, followed by 2 h reflux, after which the solvent was completely evaporated with a steady flow of nitrogen gas. The dried samples were then reconstituted and homogenized with nitric acid. Calcium standards and samples were diluted with nitric acid. Absorbance was recorded using ICP-OES (Shimadzu ICPE-9000, Shimadzu). Two technical replicates were measured for each sample. […] Tissue concentrations of calcium were expressed as mg/g of dry tissue.

vascular calcification [2] = assay: Vitamin D3 (oral) + warfarin diet rat model of VC; details: all dose groups

COCCOCCO[C@@H]1[C@@H](OP(=O)(O)O)[C@H](OCCOCCOC)[C@@H](OP(=O)(O)O)[C@@H](OP(=O)(O)O)[C@H]1OP(=O)(O)O [(OEG2)2-IP4, 4,6-Di-O-(methoxy-diethyleneglycol)-myo-inositol-1,2,3,5-tetrakis(phosphate)]
carotid VC (calcium by ICP-MS) (vascular calcification [1]): significantly decreased formation of carotid VC
calcification in the heart and the left kidney (vascular calcification [2]): no differences between treatment groups were observed
